Source: patent US20110244058A1, “Compositions and methods for treatment of pulmonary diseases and conditions” (priority 2008, published 2011)

System: inflamed lungs of rats

`Brc1c(NC2=NCCN2)ccc2nccnc12.O=C(O)C(O)C(O)C(=O)O` [brimonidine, 5-bromo-6-(2-imidazolin-2-ylamino)quinoxaline D-tartrate] was tested, and the “final pre/post-suctioning change in resistance, saline versus brimonidine group” value (after last treatment) was “significantly greater in the saline group than the brimonidine group (P=0.006)”, the “post-treatment resistances, saline group compared with brimonidine group” value (after the 400 and 800 μg/ml doses) was “significantly higher (P=0.03) in the saline group” and the “post-suctioning resistances, difference between saline and brimonidine groups” value (any of the time points) was “not a significant difference between groups”. The “increase in central airway resistance during post-treatment monitoring period” value (rats, aerosol 200, 400, 800 μg/ml, 10 minutes after each treatment, FIG. 4) was “little increase in resistance”.
